Assays:
[1] = tested on: HER2+ metastatic breast cancer; assay: Progression free survival of HER2+ mBC patients treated with trastuzumab and chemotherapy; type: in vivo, human
Source text: Here we retrospectively evaluated the pretreatment serum metabolome for association with PFS in a cohort of 23 trastuzumab-treated metastatic breast cancer patients. […] This metabolite BoR could be used to screen future patients to predict response to trastuzumab.
Patients were subdivided into early progressors (PFS<301 days) and late progressors (PFS≥301 days). […] The remaining patients received trastuzumab as part of second-, third-, fourth-line or beyond.

[2] = tested on: HER2+ metastatic breast cancer; conditions: after about 1 year of PFS; cited from earlier work

## trastuzumab: monoclonal antibody that binds to the HER2 receptor inhibiting dimerization
[1]; 23 HER2+ mBC patients, trastuzumab and chemotherapy
  median PFS: 301 days
[1]; PFS<301 days, of 23 patients
  Non-responders (NR), early progressors: 13
[1]; PFS≥301 days, of 23 patients
  Responders (R), late progressors: 10
[2]
  patients who stop responding to therapy: approximately 75%

From patent publication US20230087439A1, “Nmr-Metabolite-Signature For Identifying Cancer Patients Resistant To Cdk4/6 Inhibitors, Endocrine Therapy and Anti-HER2 Therapy” (Olaris, inc., priority 2018, published 2023)
